Measured values taken from patent US20080039775A1, “Apparatus and Method for Transdermal Delivery of Parathyroid Hormone Agents to Prevent or Treat Osteopenia” (ALZA CORPORATION, priority 2006, published 2008).

Assay: pH and water solubility of hPTH hexaacetate in solution
Assay type: physicochemical
Details: mole ratio 1 to 6
Text: Referring now to FIG. 10, there is shown a superposition of the mole ratios for acetic acid and the neutral form of hPTH(1-34). The pH of a HPTH hexaacetate (mole ratio 1 to 6) in solution is about pH 5. At pH 5, negligible amounts of PTH are present as PTH zero net charge (PTH 0). The PTH is also highly soluble in water at concentrations in excess of 20%. During drying and subsequent storage, the free acetic acid will evaporate inherently resulting in formation of the water insoluble PTH 0. Subsequent reconstitution in water will not allow total solubilization of PTH. Accordingly, the use of a low volatility counterion provides a solid soluble formulation of PTH as long as the pH is maintained at least 2.5 pH units, preferably 3 pH units, below the pI of PTH. Preferably, this can be achieved by providing at least about two low volatility counterions to each molecule of PTH.

## HPTH hexaacetate: hPTH with acetic acid counterion, mole ratio 1 to 6
  pH in solution: ~5 pH
